Data from PubChem BioAssay AID453 (PCMD, 2006).
This is a selection; strong and weak results do not stand in their true shares. Calls of active or inactive are those of the source. No stated cut-off is given here; in the data, active means inhibition above about 21%; inactive means the rest.

target: Cathepsin B (Homo sapiens) (UniProt P07858); assay: blockers of cathepsin B proteolysis – biochemical, fluorogenic substrate, primary screen (AID 453); conditions: purified cathepsin B, fluorescence, active compounds read high,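 tested at 10 µM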;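 further: 0% = enzyme with no compound and 100% = no enzyme blank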

SMILES | inhibition
CP(=O)(Nc1ccccc1F)Oc1ccccc1 (stereo not drawn) | inactive: -2.51%
CCOP(C)(=S)SCC(=O)NC(C)(CC)C(=O)O (stereo not drawn) | inactive: 0.44%
Cc1ccccc1NP(C)(=O)Nc1ccccc1C | inactive: 4.37%
CP(=O)(Nc1ccc2c(c1)OCCO2)Oc1ccccc1 (stereo not drawn) | inactive: 2.8%
CN(C)CCOC(=O)C(O)(c1ccccc1)C1CCCCC1 (stereo not drawn) | inactive: 2.49%
CP(=O)(Oc1ccccc1)N1CCOC1=O (stereo not drawn) | inactive: 3.77%
COc1ccccc1OP(C)(=O)Nc1c(C)n(C)n(-c2ccccc2)c1=O (stereo not drawn) | inactive: 2.83%
CCN(CC)CC(O)COC(=O)C(O)(c1ccccc1)C1CCCCC1 (stereo not drawn) | inactive: 2.01%
CP(=O)(Nc1ccccn1)Oc1ccccc1 (stereo not drawn) | inactive: 2.24%
COc1ccccc1OP(C)(=O)Nc1ccc(C)c(C)c1 (stereo not drawn) | inactive: 3.44%
Cc1nc2ccc3ccccc3c2o1.O=[N+]([O-])c1cc([N+](=O)[O-])c(O)c([N+](=O)[O-])c1 | inactive: 2.11%
COc1ccccc1OP(C)(=O)Nc1ccc(C)cc1 (stereo not drawn) | inactive: -1.43%
Cc1ccc(NP(C)(=O)Oc2ccccc2)c(C)c1 (stereo not drawn) | inactive: 0.21%
CP(=O)(NC(=O)Nc1ccccc1)Oc1ccccc1 (stereo not drawn) | inactive: -2.25%
CCOP(C)(=S)SCC(=O)NC(C)C(=O)O (stereo not drawn) | inactive: 11.5%
CP(=S)(Nn1cnnc1)Oc1ccccc1 (stereo not drawn) | inactive: 5.28%
Cc1nc2ccc3ccccc3c2s1.O=[N+]([O-])c1cc([N+](=O)[O-])c(O)c([N+](=O)[O-])c1 | inactive: 0.33%
Cc1ccc(C)c(NP(C)(=O)Oc2ccccc2)c1 (stereo not drawn) | inactive: 1.44%
